Reference: patent publication US20220072138A1, “NRTI THERAPIES” (THE UNIVERSITY OF LIVERPOOL, priority 2018, published 2022)

Conditions: phosphate buffer 100 mM, pH 7.4, 37° C.; compounds 2, 5 and 8 compared

Substance: N-(4-methoxyphenyl)-tenofovir alafenamide carbamate [TAF carbamate 2]
- relative rate of hydrolytic cleavage: fastest
